{"source": "patent US7732162", "proteins": {"B1": {"name": "recombinant human glutaminyl cyclase (QC) (protein)", "chain": "EEKNYHQPAILNSSALRQIAEGTSISEMWQNDLQPLLIERYPGSPGSYAARQHIMQRIQRLQADWVLEIDTFLSQTPYGYRSFSNIISTLNPTAKRHLVLACHYDSKYFSHWNNRVFVGATDSAVPCAMMLELARALDKKLLSLKTVSDSKPDLSLQLIFFDGEEAFLHWSPQDSLYGSRHLAAKMASTPHPPGARGTSQLHGMDLLVLLDLIGAPNPTFPNFFPNSARWFERLQAIEHELHELGLLKDHSLEGRYFQNYSYGGVIQDDHIPFLRRGVPVLHLIPSPFPEVWHTMDDNEENLDESTIDNLNKILQVFVLEYLHL"}}, "key": {"H-Gln-Ala-Ala-NH2": {"target": "T1, H-Gln-Ala-Ala-NH2", "T1 chain": "QAA"}, "[Gln^3]Aβ3-11a": {"target": "T2, [Gln^3]Aβ3-11a", "T2 chain": "QFRHDSGYE"}}}
{"protein": "B1", "values": [{"measurement": "KM", "setting": "H-Gln-Ala-Ala-NH2", "result": 87, "unit": "µM"}, {"measurement": "KM (determined in absence of DMSO)", "setting": "[Gln^3]Aβ3-11a", "result": "87 ± 3", "unit": "µM"}]}
